Screening data (PubChem)
The list is not random: actives were taken first. Their share in the collection is about 1.9%.
ERp5 inh – blocks human ERp5 reductase activity on insulin; Q15084; ERp5 insulin aggregation, absorbance 650 nm, 90 min; inhibition, % at 9.99 µM; actives 0.05% (n = 350,000); AID 651711;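 active = mean replicate inhibition above about 25%, with every replicate also reaching it, limit read from the data, passing the limit was not always enough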
FGF22 binding – binders of recombinant human FGF22 by thermal shift; Q9HCT0; SYPRO orange fluorescence; percent of sucrose octasulfate shift, DMSO zero; activity (Tm shift, normalised), % at 9.99 µM; actives 1.5% (n = 340,000); AID 651658;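 active = mean Tm shift, scaled 0 neutral to 100 positive control, at about 1.3% or above, every replicate too, limit read from the data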
PDI turbidity – PDI (human) enzyme inhibition | P07237 | PDI insulin aggregation turbidity, A650, 90 min | inhibition, % at 10 µM | actives 0.052% (n = 350,000);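 active = mean inhibition across replicates of 30% or more, whatever share of single replicates reach that level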
PglD inh – inhibitors of Campylobacter jejuni PglD acetyltransferase; purified PglD enzyme, DTNB colorimetric CoA detection; inhibition, % at 12.5 µM; actives 0.098% (n = 360,000); AID 602405; in the data active = inhibition above about 16%, passing the limit was not always enough
ARNT TACC3 PPI – disruptors of human ARNT/TACC3 interaction; AID 623870; actives 0.66% (n = 390,000); inhibition, % at 9.99 µM; AlphaScreen His-ARNT PAS-B/GST-TACC3 binding, luminescence; TACC3 fragment carries E629A point mutation;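 active = mean inhibition of replicates at least 50% and at least half of replicates each reaching 50%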;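 also: 0% = complete ARNT plus TACC3 wells and 100% = ARNT alone without TACC3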
UUG fidelity – yeast start codon fidelity modulation. S. cerevisiae UUG-firefly luciferase reporter, luminescence/redox ratio. activity score, % at 18.7 µM. 0.13% of 350,000 active;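 active = replicate mean at a twofold rise or more, about +100% in these data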;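 also: firefly luciferase made from a UUG start codon reports start codon fidelity; reporter light over untreated wells divided by growth signal over untreated wells; some hits fall short of that in this replicate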
An asterisk follows results filed as active.

Start of the data: the first two compounds as a preview:
Screening Cc1nc2cc(NS(=O)(=O)c3cccc(F)c3)ccc2s1 returned ERp5 inh 1, FGF22 binding 44*, PDI turbidity 7 and ARNT TACC3 PPI -3.
Screening CC(=O)c1cccc(S(=O)(=O)Nc2ccc3nc(C)sc3c2)c1 returned ERp5 inh -1, FGF22 binding 0, PDI turbidity 5, PglD inh 3, ARNT TACC3 PPI 0 and UUG fidelity -2.

All compounds of this part, from the start:
Screening Cc1nc2cc(NS(=O)(=O)c3cccc(F)c3)ccc2s1 returned ERp5 inh 1, FGF22 binding 44*, PDI turbidity 7 and ARNT TACC3 PPI -3.
Screening CC(=O)c1cccc(S(=O)(=O)Nc2ccc3nc(C)sc3c2)c1 returned ERp5 inh -1, FGF22 binding 0, PDI turbidity 5, PglD inh 3, ARNT TACC3 PPI 0 and UUG fidelity -2.
O=C(C(=O)N1CCOCC1)c1c[nH]c2ccccc12 was read as ERp5 inh 1, FGF22 binding 43*, PDI turbidity 3 and ARNT TACC3 PPI 2.
Cc1cc(C)c(C(=O)COC(=O)c2cccnc2Cl)c(C)c1 was read as ERp5 inh 0, FGF22 binding 43*, PDI turbidity 6 and ARNT TACC3 PPI -5.
For Cc1noc(C)c1COc1ccc(C(=O)OCC(=O)NCCN2C(=O)CSC2=O)cc1 the results were ERp5 inh 5, FGF22 binding 44*, PDI turbidity 2 and ARNT TACC3 PPI -2.
O=C(COC(=O)c1ccc(OC(F)(F)F)cc1)NCCN1C(=O)CSC1=O was read as ERp5 inh 10, FGF22 binding 0, PDI turbidity -1, PglD inh 4, ARNT TACC3 PPI -7 and UUG fidelity -10.
COc1ccc2nc(C)cc(N3CCC(C(N)=O)CC3)c2c1 was read as ERp5 inh -1, FGF22 binding 43*, PDI turbidity -1, PglD inh 2 and UUG fidelity -12.
Screening CCOC(=O)C1CCN(c2cc(C)nc3ccc(OC)cc23)CC1 returned ERp5 inh -5, FGF22 binding 0, PDI turbidity -4, PglD inh 1, ARNT TACC3 PPI -1 and UUG fidelity -6.
CN1C(=O)NC(c2ccccc2)C2=C1CN(c1cccc(C(F)(F)F)c1)C2=O (stereo not given) was read as PDI turbidity 31*, PglD inh 3 and UUG fidelity -7.
CCc1ccc(C(c2ccc(CC)cc2)C(Cl)Cl)cc1 was read as ERp5 inh 1, FGF22 binding 0, PglD inh 3 and UUG fidelity -11.
For Clc1ccc(C(c2ccccc2Cl)C(Cl)Cl)cc1 (stereo not given) the results were ERp5 inh 6, FGF22 binding 0, PDI turbidity 2, PglD inh 1, ARNT TACC3 PPI 48* and UUG fidelity -17.
For CC(C)Cc1nnc(NC(=O)Cc2cccs2)s1 the results were ERp5 inh 3, FGF22 binding 43*, PDI turbidity -1 and ARNT TACC3 PPI -7.
For O=C(Nc1ccc(F)cc1)c1nc[nH]c1C(=O)O the results were ERp5 inh 0, FGF22 binding 0, PDI turbidity 2, PglD inh -1, ARNT TACC3 PPI 54* and UUG fidelity -13.
COc1ccc(NC(=O)Nc2ccc3c(c2)C(=O)N([C@H](C)CO)C[C@@H](C)[C@@H](CN(C)CC2CCCCC2)O3)cc1 was read as ERp5 inh 0, FGF22 binding -1, PglD inh 4, ARNT TACC3 PPI 2 and UUG fidelity -1.
CCOC(=O)CSc1nc2ccccc2c(=O)n1CC was read as PDI turbidity 2, PglD inh -2, ARNT TACC3 PPI -11 and UUG fidelity -26.
CCOC(=O)CSc1nc2ccccc2c(=O)n1CC(C)C was read as ERp5 inh 4, FGF22 binding 43*, PDI turbidity -9 and ARNT TACC3 PPI -11.
For CC(C)(C)NCC(O)COc1ccc(Br)cc1 (stereo not given) the results were ERp5 inh 0, FGF22 binding 44*, PDI turbidity -14, PglD inh -6, ARNT TACC3 PPI -16 and UUG fidelity -11.
For CC(C)NC(=O)N(C)C[C@H]1Oc2ccc(NS(C)(=O)=O)cc2CC(=O)N([C@H](C)CO)C[C@H]1C the results were ERp5 inh -4, FGF22 binding 0, PglD inh 2, ARNT TACC3 PPI -10 and UUG fidelity -8.
CNC(=O)CSc1nnc(-c2ccc3c(c2)OCO3)n1C was read as ERp5 inh -7, FGF22 binding 43*, PDI turbidity -11 and ARNT TACC3 PPI -2.
Screening O=C(NCC[C@H]1CC[C@H](NS(=O)(=O)c2ccc(F)cc2)[C@H](CO)O1)c1ccccc1F returned ERp5 inh 3.
